## scFv variants of Ab-14 (light chain) against a SARS-CoV-2 spike peptide

The measurements come from Li et al. 2023 (doi:10.1038/s41467-023-39022-2) through the FLAb antibody collection.

Target peptide (SARS-CoV-2 spike, HR2 region): PDVDLGDISGINAS

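Phage display of a naive human antibody library on the peptide gave the parent. The variants were designed computationally from a first round of random CDR variants and then made and measured. Several design methods are mixed in this list. Affinity was read by AlphaSeq, a pooled yeast mating assay with surface-displayed partners. The frequency of each diploid, read from paired DNA barcodes, reflects how well the two displayed proteins bind. Each replicate has its own calibration line, from reference interactions of the BCL2 family. There are six technical replicates.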

Parent: Ab-14, a human scFv built as VH, the linker GGGGSGGGGSGGGGS, VL. Only the CDRs of the light chain vary.
VH: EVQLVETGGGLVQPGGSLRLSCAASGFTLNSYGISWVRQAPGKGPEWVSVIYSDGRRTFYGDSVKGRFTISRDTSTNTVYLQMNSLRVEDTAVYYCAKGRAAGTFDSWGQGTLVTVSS
VL: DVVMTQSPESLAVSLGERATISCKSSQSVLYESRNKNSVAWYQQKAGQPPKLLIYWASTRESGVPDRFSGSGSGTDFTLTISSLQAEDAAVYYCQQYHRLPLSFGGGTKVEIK

Each variant is given by its three light chain CDRs, as the data file delimits them; those of the parent are KSSQSVLYESRNKNSVA, WASTRES, QQYHRLPLS. Variants here have more than six changes. Affinities are written as log10 Kd with Kd in nM; a lower number is a better binder. "ND" marks a missing value. The strain was present, yet no cells mated with the target were sequenced in that replicate, which points to weak or no binding. The parent sequence was in this pool as ten entries: three were never detected, three once, and four in most replicates, with averages from 0.34 to 2.37. The authors' rule: three or more of the six replicates give a measured affinity, fewer mean a poor binder. Three control strains display no target. For all light chain designs, 4% of the pairings with them gave a signal, with a median of 2.64 and one signal in twenty below 1.59, so weak values seen in few replicates may be background. The control count says in how many pairings with the empty strains this scFv gave a signal. A sequence measured in both rounds can read differently, since the two assays cover different ranges.

For KLGDYVHTLSRNKNSIA / DMRTRES / QQYYRLPLS, the assay gave 0.26, 0.05, 0.13, 0.21, 0.16, 0.18 (controls 0 of 18). With SLSNQETEQIQHANSIA / DRDERDV / QQYAHLPLS the result was 0.76, 0.53, 0.38, 0.08, 0.58, 0.27 (controls 2 of 18). The variant FLSGSVLMESRNKNSVA / SADTRLS / QQYHRLPLS gave 0.23, -0.06, 0.13, -0.29, -0.04, 0.04 (controls 0 of 18). With KVAGMMHQMGTQHQNIA / DMAIKCD / QQYQRLPLH the result was 0.67, 0.32, 0.22, 0.18, 0.17, 0.39 (controls 2 of 18). For KLYQSMGYLSHMKNSIA / DMSRREN / QQYHRLPLS, the assay gave 0.36, 0.46, 0.23, 0.09, 0.13, 0.43 (controls 3 of 18). For SMQLDQIEGNQQQNSIA / GESIADM / QHYERLPLT, the assay gave ND, ND, ND, ND, ND, ND (controls 0 of 18). The variant TLMHHQDRYDNWKKSIA / EASIRES / QQYQRLPLA showed 1.41, 0.47, 0.31, 0.31, 0.86, 0.66 (controls 0 of 18).

For RMEWHNSGLLEAKNSVA / GVEHRAN / QQYDRLPLE, the assay gave 1.20, 0.96, 0.15, 0.21, 0.63, 0.85 (controls 0 of 18). The variant MLTMFANEPAGKSSNIA / DTNQLTT / QQYQRLPFM showed 0.05, -0.14, 0.00, 0.05, 0.27, 0.18 (controls 3 of 18). With KLEQSELYESRNPQSVA / NASERES / QQYHRLPLS the result was -0.26, 0.10, -0.35, -0.48, 0.19, 0.09 (controls 0 of 18). The variant KVSEFMRGLMKKQDSIA / DNVTRNN / QQYDRLPLS showed 0.89, 1.58, 1.38, 1.84, 1.52, 1.75 (controls 1 of 18). The variant MLSQMWAIGMKVSNSVA / QASTRFN / QQYERLPLM showed 0.41, 0.38, 0.81, 0.84, 1.34, 0.54 (controls 0 of 18). The variant MIYAANMELGRAANSIA / DNVTRYS / QQYERLPLS showed 2.35, ND, 2.76, 1.97, 3.12, 3.87 (controls 1 of 18). The variant NISHFMDTTAKHNNNVA / EMEMREE / QQYHHLPLS showed 0.37, 0.15, 0.10, 0.05, 0.24, 0.25 (controls 2 of 18).

With MLLQATMYGERNRNSVA / HASTRED / QYYHRLPLI the result was 2.65, 2.24, 1.92, 1.66, 3.39, 3.26 (controls 0 of 18). With MLTISGDETHEKAFSIA / NVTNKAY / QQYARLPLT the result was 0.57, 0.68, 0.21, -0.02, 0.57, 0.78 (controls 0 of 18). The variant HMLYQFNTGSLRVNNVA / EGETVLD / QQYFRLPIT gave ND, 0.59, 0.78, 1.20, ND, 1.27 (controls 0 of 18). With KLRQVTGYEMYNKNSVA / QTSTRVQ / QDYHRLPLS the result was 0.63, 0.58, 0.53, 0.46, 0.84, 0.52 (controls 0 of 18). The variant HISNMQAYGYSAYNSVA / DNETKLN / QQYIRLPLT showed 0.69, 1.04, 0.74, -0.17, 0.56, 1.47 (controls 0 of 18). The variant NFSQMVQTGMTLRNSVA / HASMRFN / QQYHRLPLI gave 2.10, 1.31, 0.98, 1.36, 1.90, 1.84 (controls 0 of 18). The variant KIGGVTNGISRSKDSVA / EQSTRED / QQYDRLPLS gave 1.37, 0.29, 0.74, 0.23, 0.50, 0.82 (controls 1 of 18).

The variant MLDQMDGQMGGNTNNIA / DVVEHRI / QQYHRLPLS gave 1.35, 1.36, 0.29, 0.87, 1.87, 0.85 (controls 0 of 18). The variant TLGDVTRMESMKKNSIA / DMSNRAD / QQYHRLPLS gave 0.04, -0.09, -0.28, -0.33, -0.14, -0.34 (controls 0 of 18). The variant HISMMVGTKGYAKNSVA / NEETRYD / QQYHRLPLS gave 0.10, -0.06, 0.14, -0.05, -0.08, 0.44 (controls 2 of 18). The variant NFSQMVLTGQTLRNSVA / HASTRFE / QQYHRLPLI showed 1.22, 1.53, 1.14, 1.61, 1.00, 1.58 (controls 0 of 18). For HMSAVTMLGMRQKNSVA / QMTTREN / QQYDRLPLA, the assay gave 2.24, 0.90, ND, 1.29, 0.83, 1.61 (controls 0 of 18). With LISGVTDYGSRNYNSVA / QTSTRES / QQYDRLPLE the result was 1.28, 1.38, 1.32, 1.22, 1.78, 1.28 (controls 1 of 18). The variant SMAWQQGGYNQQEAAIA / EAATRTQ / QQYFRLPLT gave 1.04, 0.60, 0.26, 0.38, 0.39, 0.47 (controls 1 of 18).

For KLSMVTNSEHKVKNSIA / EMVTREK / QQYDRLPLE, the assay gave 0.78, 0.42, 0.84, 1.10, 0.90, 1.16 (controls 2 of 18). The variant MISDLTMMGSRNKNSVA / DLSTRGS / QQYHRLPLS gave 1.65, 0.87, 1.01, 1.07, 1.23, 0.71 (controls 2 of 18). The variant KLTMVTGTEKVRGNNVA / EMETRES / QQYNRLPLS showed 0.64, 0.55, 0.51, 0.36, 0.65, 0.80 (controls 0 of 18). With ILSDSVLTESRNKNSVA / DNSTRES / QCYDRLPLS the result was ND, ND, ND, ND, ND, ND (controls 0 of 18). The variant KIGQLTTYHSQMGNSIA / QTSTREE / QQYHRLPLS showed 0.24, 0.09, 0.01, -0.02, 0.11, 0.19 (controls 2 of 18). The variant MMSQMFEGLSTSKNPVA / QVTTREE / QQYHRLPLS gave 1.34, 1.68, 2.06, 1.51, ND, 3.91 (controls 1 of 18). For KISQSQLYEDRNHWSVA / NASTRCS / QQYHRLPLS, the assay gave 0.47, 0.22, 0.08, 0.06, 0.24, 0.54 (controls 1 of 18).

The variant KFSQEVMMGDRNKNSVA / KASQRLS / QQYHRLPLS gave 1.08, 1.06, 0.93, 1.06, 0.84, 0.90 (controls 2 of 18). With KISQMVRVGATVSNSIA / EEVTRAN / QQYHRLPLA the result was 0.91, 0.76, 0.67, 0.53, 0.44, 0.69 (controls 0 of 18). The variant HTQHLGFGDPYAWNNVA / DVSQVCS / QQYARLPLT gave -0.23, 0.00, ND, 0.11, 0.01, ND (controls 0 of 18). For KLDQDDLYESRNCNSVA / QASTREQ / QQYHRLPLS, the assay gave 0.78, 0.52, 0.20, 0.04, 0.43, 0.51 (controls 0 of 18). With TIGQMFWGESRNRNSVA / QASTRES / QSYDRLPLS the result was 1.25, 0.98, 1.07, 1.01, 1.12, 1.22 (controls 1 of 18). The variant MLSEVLHMLGVQKNSIA / DLVLRAN / QQYHRLPLS showed ND, ND, ND, ND, ND, ND (controls 0 of 18). The variant HISQMVMYGSCNKNNVA / QVSLREE / QQYHRLPLS showed 0.18, -0.09, 0.16, 0.09, 0.07, 0.12 (controls 2 of 18).

For KLTEQLYNGERRPSSIA / AGVIGSD / QQYHQLPLI, the assay gave 1.63, 2.03, 1.36, 1.05, 1.95, 1.62 (controls 3 of 18). With MITAVMYAYNGSFSSIA / DKTISVN / QQYHRLPLS the result was 0.95, 0.24, 1.33, 0.10, 1.23, 0.84 (controls 0 of 18).

From the list, the first 3 with no signal in any replicate:

CDR-L1,CDR-L2,CDR-L3,"log10 Kd, replicates",control signals
SMQLDQIEGNQQQNSIA,GESIADM,QHYERLPLT,"ND, ND, ND, ND, ND, ND",0/18
ILSDSVLTESRNKNSVA,DNSTRES,QCYDRLPLS,"ND, ND, ND, ND, ND, ND",0/18
MLSEVLHMLGVQKNSIA,DLVLRAN,QQYHRLPLS,"ND, ND, ND, ND, ND, ND",0/18